## Apparent affinities of Ab-14 variants for a coronavirus HR2 peptide

All variants were tested on one target, the spike HR2 peptide PDVDLGDISGINAS (SARS-CoV-2).

Parent scFv Ab-14: VH joined to VL by a (GGGGS)3 linker. Changes lie in the heavy chain CDRs alone.
VH: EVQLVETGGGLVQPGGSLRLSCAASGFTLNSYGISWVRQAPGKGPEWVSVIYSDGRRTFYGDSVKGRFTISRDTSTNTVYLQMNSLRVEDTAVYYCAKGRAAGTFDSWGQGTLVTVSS
VL: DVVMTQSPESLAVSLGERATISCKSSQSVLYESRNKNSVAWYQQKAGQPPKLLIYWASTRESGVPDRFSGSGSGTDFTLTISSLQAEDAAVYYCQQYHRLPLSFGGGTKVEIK

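The starting antibody came from a phage panning campaign against this peptide. This is the validation round: designs drawn from the data on random variants, tested in the same kind of assay. Their group label is 14H_GP_Gen (GP: Gaussian process model; Gen: genetic algorithm; a sequence that several methods proposed may carry one label only). Affinity was read by AlphaSeq, a pooled yeast mating assay with surface-displayed partners. Pairs that bind mate more often; barcode pairs of the diploids are counted by sequencing. A regression on co-assayed BCL2-family reference pairs converts the normalised counts of each replicate to an apparent Kd. Mating was done six times.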

Positions count from residue 1 of the parent VH; T28E puts E in place of T. Values are log10 of the apparent Kd in nM; lower means stronger binding. Averages over replicates are reported, and they cover detected replicates only. "nd" marks a missing value. The strain was present, yet no cells mated with the target were sequenced in that replicate, which points to weak or no binding. Three control strains display no target. For all heavy chain designs, 1% of the pairings with them gave a signal, with a median of 2.08 and one signal in twenty below 0.84, so weak values seen in few replicates may be background. Also given: how often the same scFv was detected with the empty control strains, with their mean in brackets. The parent sequence was in this pool as ten entries: three were never detected, three once, and four in most replicates, with averages from 0.34 to 2.37. In the paper, a design with two or fewer of six values counts as a poor binder. A sequence measured in both rounds can read differently, since the two assays cover different ranges.

changes | replicates, log10 nM | log10 Kd (nM), mean | signal with controls
T28E/G61H/R100K/A101T | 1.19 / -0.19 / -0.30 / 1.33 / 0.88 / 1.04 | 0.66 | 0 of 18
T28E/S31E/A101C/S107T | 1.13 / 2.23 / 1.35 / 2.00 / 1.39 / 2.21 | 1.72 | 0 of 18
T28N/G61V/R100W/A101T | nd / 1.57 / 0.77 / 0.60 / 2.56 / 1.67 | 1.43 | 0 of 18
T28W/G61K/R100Q/A101T | nd / 0.88 / nd / nd / 2.16 / 2.11 | 1.72 | 1 of 18 (1.98)
T28G/G61I/A101Q | -0.31 / -0.75 / -0.73 / -0.53 / -1.00 / -0.91 | -0.71 | 0 of 18
T28E/S53A/G61A | -0.20 / -0.17 / -0.27 / -0.58 / -0.69 / -0.13 | -0.34 | 1 of 18 (1.97)
T28D/R100Q/A101T/S107T | -0.12 / -0.34 / 0.61 / -0.19 / -0.04 / -0.17 | -0.04 | 0 of 18
G26H/T28E/G61A/A101T | 0.40 / 0.09 / 1.02 / 0.59 / 0.11 / 0.62 | 0.47 | 1 of 18 (2.50)
T28E/R100K/A101M/S107T | nd / -0.04 / 0.22 / -0.16 / 0.05 / 0.90 | 0.19 | 0 of 18
T28D/S31T/A101Q | -0.10 / -0.32 / -0.40 / -0.17 / 0.07 / -0.40 | -0.22 | 0 of 18
T28D/S31N/R100E | nd / nd / nd / nd / nd / nd | nd | 0 of 18
T28E/G61A/S63D/A101N | 0.39 / -0.05 / -0.04 / -0.26 / -0.23 / 0.06 | -0.02 | 0 of 18
T28N/R100K/A101I | 1.55 / 2.27 / 0.83 / 0.38 / 0.92 / 0.55 | 1.08 | 0 of 18
G26P/T28D/R100K/A101T | 1.61 / 0.46 / -0.04 / 1.20 / 0.70 / 0.93 | 0.81 | 1 of 18 (0.75)
T28G/S31E/G61H/R100H | 0.18 / 0.12 / -0.18 / 0.07 / 0.02 / 0.11 | 0.05 | 0 of 18
T28S/R100K/A101T/S107V | 1.09 / 1.20 / 2.39 / 1.77 / 0.29 / 2.06 | 1.47 | 0 of 18
T28S/S63K/A101Q | nd / 0.10 / -0.31 / -0.16 / nd / 1.16 | 0.20 | 0 of 18
T28D/G61A/S63R/R100N | 1.43 / 1.67 / 1.21 / 1.40 / 1.53 / 1.99 | 1.54 | 0 of 18
T28E/S31N/G61I/R100Q | 1.87 / 0.47 / 1.41 / 1.14 / 0.59 / 0.76 | 1.04 | 0 of 18
T28D/G61D/R100K/A101Q | 0.21 / 0.08 / -0.36 / -0.11 / -0.09 / -0.33 | -0.10 | 1 of 18 (1.53)
G26H/T28D/R100Q/A101T | 1.50 / 0.94 / 0.56 / 0.89 / 0.87 / 1.19 | 0.99 | 0 of 18
T28E/R56K/G61A/A101E | -0.11 / -0.23 / -0.15 / -0.15 / 0.00 / -0.19 | -0.14 | 2 of 18 (2.17)
T28D/G61A/S63K/A101Q | nd / nd / 0.42 / 0.50 / 0.31 / -0.28 | 0.24 | 0 of 18
T28G/S31E/R100N | 0.50 / 0.44 / 0.61 / 0.39 / 0.55 / 0.60 | 0.52 | 0 of 18
G26P/T28D/G61K/A101T | 0.07 / 0.98 / 1.18 / 1.37 / nd / nd | 0.90 | 0 of 18
T28S/S31E/G61K/R100N | -0.02 / 0.13 / 0.00 / 1.03 / 0.76 / 0.72 | 0.44 | 0 of 18
T28E/G61K/A101E | -0.79 / 0.23 / -0.55 / 0.33 / -0.39 / -0.27 | -0.24 | 0 of 18
T28S/S53A/R100Q/S107V | -0.25 / -0.22 / -0.75 / -0.78 / -0.44 / -0.25 | -0.45 | 1 of 18 (2.12)
T28D/G61A/R100K/A101V | -1.50 / -1.39 / -1.39 / -1.99 / -1.64 / nd | -1.58 | 0 of 18
T28D/S31M/A101E | -0.22 / 0.23 / -0.26 / -0.36 / -0.40 / 0.12 | -0.15 | 0 of 18
N30E/S53A/R100K/S107A | 0.41 / 0.04 / 0.38 / 0.24 / 0.25 / 0.11 | 0.24 | 0 of 18
T28D/A101T/S107E | 0.73 / 0.20 / 0.16 / 0.33 / 0.31 / 0.25 | 0.33 | 1 of 18 (2.13)
T28E/S31A/A101T | nd / nd / nd / nd / nd / nd | nd | 0 of 18
T28E/G61Q/A101N | -0.12 / -0.89 / -0.52 / -0.38 / -0.77 / -0.37 | -0.51 | 0 of 18
T28N/S53A/A101Q | 0.41 / 0.11 / 0.26 / 0.22 / -0.14 / 0.10 | 0.16 | 0 of 18
T28E/R56Q/G61K/A101T | 1.39 / 1.57 / nd / 1.23 / 0.33 / 1.05 | 1.12 | 0 of 18
T28R/S31E/A101N | 1.95 / 0.92 / 0.86 / 0.54 / 0.58 / 0.94 | 0.96 | 0 of 18
T28N/S63K/A101N | 0.96 / 1.72 / 0.74 / 1.68 / 0.69 / 1.55 | 1.22 | 1 of 18 (1.91)

Source: Li et al. 2023 (doi:10.1038/s41467-023-39022-2), MIT Lincoln Laboratory and A-Alpha Bio; data file from the FLAb repository.